The values below are quoted from earlier work in patent US7888385B2, “Airway alkalinization as therapy for airway diseases” (priority 2002, dated 2011).

For the data set the following is noted: cited from earlier work.

On to “3-(Cyclohexamino)-1-propanesulphonic acid”, for which the pKa was 10.5.
